## Measured affinities in a library of Ab-91 heavy chain variants

Data: MIT Lincoln Laboratory AlphaSeq set, Engelhart et al. 2022, doi:10.1038/s41597-022-01779-4, as distributed in FLAb.

Antigen: PDVDLGDISGINAS, a 14-residue peptide of the SARS-CoV-2 spike HR2 region.

Ab-91 is the parent antibody, in scFv form: VL, then the linker GGGGSGGGGSGGGGS, then VH. The light chain is unchanged in all variants.
VL: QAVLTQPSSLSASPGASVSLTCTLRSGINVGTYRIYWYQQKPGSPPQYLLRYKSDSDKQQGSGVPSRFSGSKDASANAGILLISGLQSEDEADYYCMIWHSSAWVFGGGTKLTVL
VH: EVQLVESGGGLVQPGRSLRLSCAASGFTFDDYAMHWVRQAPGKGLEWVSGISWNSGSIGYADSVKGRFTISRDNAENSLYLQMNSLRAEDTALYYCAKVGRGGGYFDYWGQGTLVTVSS

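The starting antibody came from a phage panning campaign against this peptide. Variants in AAYL51 differ from the parent at up to three CDR positions; double and triple changes were sampled at random. Affinity was read by AlphaSeq, a pooled yeast mating assay with surface-displayed partners. Mating (16 h, 30 °C) was followed by selection of diploids and sequencing of their barcodes. The ratio of observed to expected reads was calibrated, replicate by replicate, on BCL2-family standards whose Kd was known from biolayer interferometry. There are three technical replicates.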

Each variant is given by its three heavy chain CDRs, as the data file delimits them; those of the parent are GFTFDDYAMH, GISWNSGSIGYADSVK, VGRGGGYFDY.
Numbers give log10(Kd / nM), so 0 is 1 nM and 3 is 1 µM. Smaller is tighter.
The mean shown is taken over the replicates in which the pair was detected.
A pair that was not seen in any replicate is written "no signal"; this usually means weak binding, but a binder can also be missed.
Background: pairings of library AAYL51 with three empty control strains gave a value in 21% of cases (median 4.54, 5th percentile 3.26). Values in that range, when seen in few replicates, are hard to tell from nonspecific mating.
In this assay the parent's reference entry averaged 1.86; its copy inside this library read 0.88.

CDR-H1	CDR-H2	CDR-H3	mean, log10 nM	detected
GFTFDDYAMH	GISWNSGSIGYAMSVA	VGRCGGYFDY	no signal	0 of 3
GFTFDDYAMH	GISWNSGSIIHADSGK	VGRGGGYFDY	no signal	0 of 3
GFTFDDYAMH	GISWNSGCCGYADNVK	VGRGGGYFDY	no signal	0 of 3
GFTFDDYAMH	GISWNSGSIGYADSVE	AGRGGGYGDY	4.74	2 of 3
GFTCDDYAMH	GYSWNSGSIGYNDSVK	VGRGGGYFDY	5.07	1 of 3
GFTFDDYAMH	GISWNSHSIGYADSET	VGRGGGYFDY	no signal	0 of 3
GFTFDDSAMH	GISWNSGSIGMADSEK	VGRGGGYFDY	4.63	1 of 3
GFTFLDYAMH	GDSWNRGSIGYADSVK	VGRGGGYFDY	no signal	0 of 3
GFTFDDYAMH	GISWNSKSIGYADSVK	VGRGENYFDY	3.73	1 of 3
GFTFNDYAMH	GISWNSGVIGYADSVK	VGPGGGYFDY	3.81	3 of 3
GFTFLDYAMH	NISWNSGSIGYADSVK	VGRHGGYFDY	no signal	0 of 3
GFTEDDYAMH	GISWNQGSIGYADSVK	VGRGGGYFDY	no signal	0 of 3
GFTFDDWAMH	GIPWNSGSIYYADSVK	VGRGGGYFDY	5.21	1 of 3
GFTFDDYAMI	GISWNSGSIGYADSVK	VGRGGGYVDY	5.09	2 of 3
GFTFDDYAMH	GIFWNSGSIGYADSVK	VGRDGGYFRY	no signal	0 of 3
GFTMDDYAMH	GISWNSGSIIYADSQK	VGRGGGYFDY	2.93	1 of 3
GFTFDDYAMH	GISWNSGSIGNADSVK	VGRIGGYFDH	4.80	2 of 3
GFTFDDYAMH	TISWNSGSIGYADSVK	VGRMGMYFDY	no signal	0 of 3
LFTFDDYRMH	DISWNSGSIGYADSVK	VGRGGGYFDY	5.34	1 of 3
GFTFDDYAMH	GISWNSASIGYANYVK	VGRGGGYFDY	5.97	2 of 3
GFTFIDYAMH	GIDWNAGSIGYADSVK	VGRGGGYFDY	no signal	0 of 3
NFTFYDYAMH	GISWNSGSIGYADQVK	VGRGGGYFDY	2.89	1 of 3
GFTFIDYAMH	GIQWNSGSIGYADSVK	VVRGGGYFDY	5.55	1 of 3
GDTFDDYAMH	GISWNSGSIGYADSVK	VGRNGGVFDY	4.30	1 of 3
GFVFDDYAMH	GISWNSGSIGYADSVK	VGRGGLYFDY	5.01	2 of 3
LFTFDDYAMH	GASWNSGSSGYADSVK	VGRGGGYFDY	5.10	2 of 3
GFTNDDYVMH	GISWNSGSIWYADSVK	VGRGGGYFDY	no signal	0 of 3
GWTFRDYAMH	GISRNSGSIGYADSVK	VGRGGGYFDY	no signal	0 of 3
GFTFDDYAMH	GISWNVGSIGYADSVK	VGRGKGYGDY	4.72	2 of 3
GFTFDDHAMH	GQSWNSGSIGYADSVK	VCRGGGYFDY	5.02	3 of 3
GFTFDDYAMH	TISWNSGSIGYADSVG	VGRGGGCFDY	4.36	2 of 3
GFTFDDYMMH	GISWNSGSIGYADSVK	VGRQGGYMDY	no signal	0 of 3
GATFDDYAMH	GISWNSGSIGYVDSVK	VGLGGGYFDY	5.43	2 of 3
GFTFDDAAMH	GISWNSGSIPYADSVK	VGRGGGPFDY	4.21	1 of 3
GFTFDDYAMR	GISWNSGSIGYADSVD	VGRGGGYFDY	5.60	3 of 3
GFTFDDYAMH	GISWNSGSIGPADSVK	VDRGSGYFDY	4.52	2 of 3
GFTFDDYAEH	GESWNSGSIGYADKVK	VGRGGGYFDY	no signal	0 of 3
GFTFDDYATH	GISWNSGSIGYADLVK	VGRGGGYFDY	5.20	1 of 3
GFTGDDYAMH	GRSWNSGIIGYADSVK	VGRGGGYFDY	4.76	2 of 3
GFTADDYAMH	GISWNSGSIGYADSVK	VGWGGGYKDY	4.29	2 of 3
GFTFDDYAMN	GISWASGSIGYADSLK	VGRGGGYFDY	4.69	2 of 3
GFTFDDYAMH	GISWNSGSFGYAGSVK	VGRGGGVFDY	no signal	0 of 3
GFTFDDYAMH	GISWVSGIIGYADSVK	VGRGGGQFDY	5.00	2 of 3
GFTFDDLAMH	GISWNSGSIGYADSVK	VGRVGFYFDY	no signal	0 of 3
GFTFDDYAMH	GISWNSGSFGYGDSVK	VGRGPGYFDY	no signal	0 of 3
GFTFDDEASH	GICWNSGSIGYADSVK	VGRGGGYFDY	no signal	0 of 3
GFTFDPYAMH	GISWNSGSIGYAMSVK	VGRGFGYFDY	5.38	1 of 3
GFTFDDYAMV	GISWNSGSIGYAPSVK	VGRGGGGFDY	5.32	2 of 3
GFTFDDYAMH	GISWNSGSIGYADIVK	QGRGGGYFDY	1.74	3 of 3
GFNFFDYAMH	GISWNSGSIGYADSVK	VGRGGGYFDH	2.51	3 of 3
GFTFDDYAMH	GISWNPGSITNADSVK	VGRGGGYFDY	5.00	3 of 3
GFTFDDYAMH	GISWNSGAIGYADSVK	VGRGGGYFRY	no signal	0 of 3
GFTFDDYAMT	GISWNSGSDDYADSVK	VGRGGGYFDY	5.10	2 of 3
GFVFDDYAMH	GISENSGSIGYADSVK	VGRGGGYWDY	no signal	0 of 3
GFTFDDYAMH	GISWNSGSIGCEDSVT	VGRGGGYFDY	no signal	0 of 3
GFTFDDYAMT	GISWNSGSIGYADSVK	VGRGAGCFDY	5.12	2 of 3
GFRFDDYAMH	GISWHSGSIGYADSVK	TGRGGGYFDY	4.95	3 of 3
GFTQDDYAMH	GISYNSGSIGYADSVK	CGRGGGYFDY	no signal	0 of 3
GFTFDKYLMH	MISWNSGSIGYADSVK	VGRGGGYFDY	no signal	0 of 3
GFTFDDYAMN	GISWRSGSIGYADSVK	VGHGGGYFDY	no signal	0 of 3

3 of these entries, quoted again:

CDR-H1	CDR-H2	CDR-H3	mean, log10 nM	detected
GFTFIDYAMH	GIQWNSGSIGYADSVK	VVRGGGYFDY	5.55	1 of 3
GFTFDDYAMH	GISWNSASIGYANYVK	VGRGGGYFDY	5.97	2 of 3
GFTNDDYVMH	GISWNSGSIWYADSVK	VGRGGGYFDY	no signal	0 of 3